Cyclic peptide permeability, from CycPeptMPDB

Source: CycPeptMPDB (Li et al. 2023), which took these values from Townsend et al. 2020, doi:10.26434/chemrxiv.13335941.v1.

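Lipid, pH, incubation time, direction and concentration are not recorded in the data file. The list need not hold all peptides of the study. Peptides that the database sets to -10, its floor, are left out.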

PAMPA is the parallel artificial membrane permeability assay, which has no cells and reads passive diffusion.
Permeability is in 10^-6 cm/s, converted from the database's log10 values; higher is more permeable.

PAMPA (10^-6 cm/s) | structure (SMILES)
0.26 | CC(C)C[C@@H]1NC(=O)[C@H](C)NC(=O)[C@H](Cc2ccccc2)NC(=O)[C@H](CC(C)C)NC(=O)[C@H]2CCCN2C(=O)[C@H](CC(C)C)NC1=O
1.2 | CC(C)C[C@@H]1C(=O)N[C@@H](Cc2ccccc2)C(=O)N[C@@H](C)C(=O)N[C@H](CC(C)C)C(=O)N(Cc2ccccc2)CC(=O)N2CCC[C@H]2C(=O)N1C
1.5 | CC(C)C[C@@H]1NC(=O)[C@@H](CC(C)C)N(C)C(=O)[C@H](C)N(C)C(=O)[C@@H]2CCCN2C(=O)[C@H](Cc2ccccc2)NC(=O)CN(Cc2ccccc2)C(=O)[C@@H]2CCCN2C1=O
1.8 | CCCN1CC(=O)N[C@@H](CC(C)C)C(=O)N(Cc2ccccc2)CC(=O)N2CCC[C@@H]2C(=O)N[C@H](CC(C)C)C(=O)N[C@@H](Cc2ccccc2)C(=O)N2CCC[C@@H]2C1=O
1.3 | CC(C)C[C@@H]1NC(=O)[C@@H](CC(C)C)N(C)C(=O)[C@@H](C)N(C)C(=O)[C@H]2CCCN2C(=O)[C@H](Cc2ccccc2)NC(=O)[C@@H](CC(C)C)NC(=O)[C@H]2CCCN2C1=O
6.3 | CC(C)C[C@@H]1NC(=O)C[C@H](Cc2ccccc2)NC(=O)[C@@H]2CCCN2C(=O)[C@H](Cc2ccccc2)NC(=O)[C@H](CC(C)C)N(C)C(=O)[C@H]2CCCN2C(=O)[C@@H](CC(C)C)N(C)C1=O
3.2 | CC(C)C[C@@H]1NC(=O)[C@@H](CC(C)C)N(C)C(=O)[C@H](C)N(C)C(=O)[C@H]2CCCN2C(=O)[C@H](Cc2ccccc2)NC(=O)[C@@H](CC(C)C)NC(=O)[C@@H]2CCCN2C1=O
1.5 | CC(C)C[C@@H]1NC(=O)[C@H]2CCCN2C(=O)[C@H](CC(C)C)N(C)C(=O)[C@@H](CC(C)C)N(C)C(=O)[C@@H](C)NC(=O)[C@H](Cc2ccccc2)NC1=O
0.55 | CC(C)C[C@@H]1NC(=O)[C@@H]2CCCN2C(=O)[C@H](CC(C)C)N(C)C(=O)[C@@H](CC(C)C)NC(=O)[C@H](C)NC(=O)[C@H](Cc2ccccc2)NC1=O
1.7 | CC(C)C[C@@H]1NC(=O)[C@H](C)NC(=O)[C@H]2CCCN2C(=O)[C@H](Cc2ccccc2)NC(=O)CN(Cc2ccccc2)C(=O)[C@H]2CCCN2C(=O)[C@H](CC(C)C)NC1=O
5 | CC(C)C[C@@H]1C(=O)N(C)[C@@H](CC(C)C)C(=O)N2CCC[C@H]2C(=O)N(C)[C@@H](CC(C)C)C(=O)N[C@@H](Cc2ccccc2)C(=O)N2CCC[C@@H]2C(=O)N[C@H](C)C(=O)N1C
0.98 | CC(C)C[C@H]1NC(=O)C[C@H](Cc2ccccc2)NC(=O)[C@H]2CCCN2C(=O)[C@H](Cc2ccccc2)NC(=O)[C@H](CC(C)C)N(C)C(=O)[C@H]2CCCN2C(=O)[C@@H](CC(C)C)NC1=O

The first 2 entries again:

structure (SMILES)	PAMPA (10^-6 cm/s)
CC(C)C[C@@H]1NC(=O)[C@H](C)NC(=O)[C@H](Cc2ccccc2)NC(=O)[C@H](CC(C)C)NC(=O)[C@H]2CCCN2C(=O)[C@H](CC(C)C)NC1=O	0.26
CC(C)C[C@@H]1C(=O)N[C@@H](Cc2ccccc2)C(=O)N[C@@H](C)C(=O)N[C@H](CC(C)C)C(=O)N(Cc2ccccc2)CC(=O)N2CCC[C@H]2C(=O)N1C	1.2